The values that follow are results of earlier work, collected in paper PMC12530842, “Potent, Selective, and Drug‐Like G Protein‐Coupled Receptor Kinase 5 and 6 Inhibitors: Design, Synthesis, and X‐Ray Structural Studies” (Chemmedchem, 2025).

The chains behind the UniProt entries cited, without tags or fusion partners.
UniProt P34947, whole entry, looked up: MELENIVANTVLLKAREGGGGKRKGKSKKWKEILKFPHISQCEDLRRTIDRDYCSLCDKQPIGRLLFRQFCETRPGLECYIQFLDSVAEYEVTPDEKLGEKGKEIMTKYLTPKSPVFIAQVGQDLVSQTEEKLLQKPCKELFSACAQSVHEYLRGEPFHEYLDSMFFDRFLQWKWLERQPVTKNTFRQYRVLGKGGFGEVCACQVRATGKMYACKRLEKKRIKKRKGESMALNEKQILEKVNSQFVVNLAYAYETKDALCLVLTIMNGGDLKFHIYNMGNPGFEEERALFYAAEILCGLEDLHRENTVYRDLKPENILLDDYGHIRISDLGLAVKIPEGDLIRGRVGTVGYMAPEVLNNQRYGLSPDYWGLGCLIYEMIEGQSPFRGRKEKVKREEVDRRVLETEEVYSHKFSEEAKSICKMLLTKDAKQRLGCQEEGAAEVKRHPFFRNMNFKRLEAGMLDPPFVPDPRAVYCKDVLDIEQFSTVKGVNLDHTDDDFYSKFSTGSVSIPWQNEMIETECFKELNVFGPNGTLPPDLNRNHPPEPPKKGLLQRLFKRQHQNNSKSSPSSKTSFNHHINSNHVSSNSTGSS

The target of the data set is GRK5 (Homo sapiens, UniProt P34947). The following applies: read-out: GRK5 IC50; earlier work; cited from earlier work.

Take `Cc1[nH]c(/C=C2\C(=O)Nc3ccc(C(=O)N[C@H](C)c4ccc(F)cc4)cc32)c(C)c1NC(=O)CCl` [compound 1]: the IC50 (usually the concentration needed to halve the response being measured) was 8.6 nM.
